Only a part is listed here, and it is no random draw. Results filed as inconclusive are left out. Active and inactive are the calls of the source. Cut-off read from the data, not from the text of the source: active = max dye-equivalent concentration above about 10 nM; inconclusive = mostly about 1.1 nM to 9.6 nM; inactive = weaker than that.

The test in a line: qHTS Assay for Spectroscopic Profiling in 4-MU Spectral Region. Conditions: compound autofluorescence, 340/450 nm, 4-MU equivalents; stronger effect = higher value. From the text: NIH Molecular Libraries Screening Centers Network [MLSCN] NIH Chemical Genomics Center [NCGC] […] Occasionally, the artifactual effect may originate from the compounds own spectral or other biophysical properties which generally tend to track its assay concentration. Pre-screening/profiling the library with respect to the compounds spectral properties should help one exclude false positives early on. While the most informative fluorescent profiling data set is obtained by performing a full excitation and emission scan of each well by using a monochromator-based plate reader, such an approach is practical only on a very limited scale as scanning each well requires long time. An alternative approach, applied here, is to perform plate reader scans using selected excitation and emission wavelength pairs to generate a multidimensional relational database that correlates compound concentration and the respective relative fluorescence intensity at a given wavelength set. A standard curve of 4-methylumbelliferone (4-MU) present on each plate as six-point concentration series, was used to compute a normalized fluorescence response, termed dye-equivalent concentration, for each compound at each concentration. […]
As for `COP1(=S)c2c(C)nn(CCC#N)c2N=C(c2ccc(F)cc2)N1C` (stereo unspecified), the max dye-equivalent concentration was active: 110 nM.

For the origin of these results see PubChem BioAssay AID589 (National Center for Advancing Translational Sciences (NCATS), 2007).
